For assay [1], the system named is PNH patients with an inadequate response to eculizumab. Kind of assay: Phase 2 open-label study of danicopan added to eculizumab: laboratory markers of PNH (Hgb, LDH, reticulocytes, bilirubin). It is filed as in vivo, human. The method, then: All doses were taken approximately 15-30 minutes after completion of a meal or snack. Dose escalations, to a maximum of 200 mg three times a day, were based on safety and hemoglobin values and permitted at 4-week intervals through week 12 at 50 mg increments. If the patient had not already reached the 200 mg three times daily maximal dose by week 12, escalation was permitted if clinically indicated. […] Patients completing treatment with clinical benefit entered a long-term extension phase.
Descriptive statistics are provided for biochemical, quality-of-life measurements, and transfusion data. Continuous variables are summarized with mean, median, minimum and maximum values. Categorical variables, e.g., transfusion-independent, are summarized with counts and percentages. Missing values were not imputed.

For assay [2] the test system is unchanged. Kind of assay: Phase 2 study: RBC transfusion needs (events, units, annualized rates). In kind it is in vivo, human. The note with it: 24 weeks prior to screening, on stable eculizumab. The protocol:
Transfusion frequency and amount were evaluated via annualized rates and units, respectively. The average intensive rate of transfusion frequency before treatment was calculated by summing the number of transfusion events in the 52 weeks prior to Screening plus days from Screening to Day 1 of dosing from 10 patients and dividing this sum by the patients' total exposure times. The average intensive rate in the 24 weeks post-treatment was calculated with the same method. The ratio of these two intensive rates (post vs. pre) was used to quantify the treatment effect. Standard statistical analysis for comparing the two intensity rates (post- vs pre-treatment) was conducted.

Assay [3] has as its system patients with PNH. The note with it: eculizumab monotherapy, SHEPHERD trial; cited from earlier work.
Assay [4] concerns patients with PNH. The following applies: eculizumab monotherapy, TRIUMPH trial; cited from earlier work.

Where “and” joins values, the source holds several entries; their conditions need not be identical. Identical values can stand only once. Like-named read-outs stand apart in the source and are kept apart here.

B1: eculizumab (antibody)
heavy: QVQLVQSGAEVKKPGASVKVSCKASGYIFSNYWIQWVRQAPGQGLEWMGEILPGSGSTEYTENFKDRVTMTRDTSTSTVYMELSSLRSEDTAVYYCARYFFGSSPNWYFDVWGQGTLVTVSSASTKGPSVFPLAPCSRSTSESTAALGCLVKDYFPEPVTVSWNSGALTSGVHTFPAVLQSSGLYSLSSVVTVPSSNFGTQTYTCNVDHKPSNTKVDKTVERKCCVECPPCPAPPVAGPSVFLFPPKPKDTLMISRTPEVTCVVVDVSQEDPEVQFNWYVDGVEVHNAKTKPREEQFNSTYRVVSVLTVLHQDWLNGKEYKCKVSNKGLPSSIEKTISKAKGQPREPQVYTLPPSQEEMTKNQVSLTCLVKGFYPSDIAVEWESNGQPENNYKTTPPVLDSDGSFFLYSRLTVDKSRWQEGNVFSCSVMHEALHNHYTQKSLSLSLGK
light: DIQMTQSPSSLSASVGDRVTITCGASENIYGALNWYQQKPGKAPKLLIYGATNLADGVPSRFSGSGSGTDFTLTISSLQPEDFATYYCQNVLNTPLTFGQGTKVEIKRTVAAPSVFIFPPSDEQLKSGTASVVCLLNNFYPREAKVQWKVDNALQSGNSQESVTEQDSKDSTYSLSSTLTLSKADYEKHKVYACEVTHQGLSSPVTKSFNRGEC
For the molecule B1, the “baseline Hgb” value in assay [1] (Patient A (no transfusions, religious objections; hereditary elliptocytosis), on eculizumab before danicopan) was 5.0 g/dL and 5 g/dL. Also, the “mean Hgb” value in assay [1] (at entry, on stable eculizumab, before danicopan, 11 patients) is 7.9 mg/dL. For the same molecule, in assay [2], the “mean RBC transfusions” value was 3.4 and the mean units transfused stood at 5.8 units. For the same molecule, the “increase in FACIT-Fatigue score versus baseline” value in the assay on patients with PNH [3] was 12.2 points. In addition, the “increase in FACIT-Fatigue score versus baseline” value in the assay with patients with PNH [4] is 6.4 points.

These data come from patent US20230172930A1, “USE OF COMPLEMENT FACTOR D INHIBITORS ALONE OR IN COMBINATION WITH ANTI-C5 ANTIBODIES FOR TREATMENT OF PAROXYSMAL NOCTURNAL HEMOGLOBINURIA” (Alexion Pharmaceuticals, Inc., priority 2020, published 2023).
